The values that follow are results of earlier work, collected in patent publication US11426422B2, “SHP2 inhibitors and methods of use thereof” (Research Development Foundation, priority 2018, dated 2022).

The target of this series is SHP2 (Homo sapiens, UniProt Q06124). The settings on record: allosteric, stabilizes the inactive conformation; cited from earlier work.

On to `CC1(N)CCN(c2cnc(-c3cccc(Cl)c3Cl)c(N)n2)CC1` [SHP099], for which the SHP2 phosphatase activity entry is listed as “inhibiting its phosphatase activity”.
